# Target: AXL (Homo sapiens, UniProt P30530)
# Sequences of proteins named here, by UniProt entry; tags and fusion partners are left off. Residues count along the entry.
# UniProt P30530, 26-894 limits assumed: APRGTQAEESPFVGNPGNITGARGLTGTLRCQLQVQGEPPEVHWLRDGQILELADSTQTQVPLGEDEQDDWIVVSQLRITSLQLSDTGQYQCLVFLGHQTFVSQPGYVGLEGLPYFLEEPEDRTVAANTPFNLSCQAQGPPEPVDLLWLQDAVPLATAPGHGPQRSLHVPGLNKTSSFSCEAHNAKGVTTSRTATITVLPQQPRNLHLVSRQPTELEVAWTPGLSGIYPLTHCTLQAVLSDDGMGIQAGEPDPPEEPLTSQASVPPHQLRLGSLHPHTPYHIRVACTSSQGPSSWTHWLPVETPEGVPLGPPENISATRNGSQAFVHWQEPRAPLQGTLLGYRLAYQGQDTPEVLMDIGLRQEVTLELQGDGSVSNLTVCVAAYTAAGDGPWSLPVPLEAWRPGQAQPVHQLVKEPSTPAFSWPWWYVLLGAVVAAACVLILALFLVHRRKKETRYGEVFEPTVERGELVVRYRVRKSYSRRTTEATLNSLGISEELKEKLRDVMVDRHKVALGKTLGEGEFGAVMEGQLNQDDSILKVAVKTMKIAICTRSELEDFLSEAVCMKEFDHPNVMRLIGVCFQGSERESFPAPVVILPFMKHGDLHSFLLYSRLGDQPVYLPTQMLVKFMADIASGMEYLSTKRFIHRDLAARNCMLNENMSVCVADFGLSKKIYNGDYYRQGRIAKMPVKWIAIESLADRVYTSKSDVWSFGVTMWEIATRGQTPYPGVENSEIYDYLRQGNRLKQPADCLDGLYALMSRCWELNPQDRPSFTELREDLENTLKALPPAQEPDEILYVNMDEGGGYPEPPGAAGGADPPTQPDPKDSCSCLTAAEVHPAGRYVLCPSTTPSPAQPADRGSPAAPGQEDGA
# UniProt P36888, 27-993 limits assumed: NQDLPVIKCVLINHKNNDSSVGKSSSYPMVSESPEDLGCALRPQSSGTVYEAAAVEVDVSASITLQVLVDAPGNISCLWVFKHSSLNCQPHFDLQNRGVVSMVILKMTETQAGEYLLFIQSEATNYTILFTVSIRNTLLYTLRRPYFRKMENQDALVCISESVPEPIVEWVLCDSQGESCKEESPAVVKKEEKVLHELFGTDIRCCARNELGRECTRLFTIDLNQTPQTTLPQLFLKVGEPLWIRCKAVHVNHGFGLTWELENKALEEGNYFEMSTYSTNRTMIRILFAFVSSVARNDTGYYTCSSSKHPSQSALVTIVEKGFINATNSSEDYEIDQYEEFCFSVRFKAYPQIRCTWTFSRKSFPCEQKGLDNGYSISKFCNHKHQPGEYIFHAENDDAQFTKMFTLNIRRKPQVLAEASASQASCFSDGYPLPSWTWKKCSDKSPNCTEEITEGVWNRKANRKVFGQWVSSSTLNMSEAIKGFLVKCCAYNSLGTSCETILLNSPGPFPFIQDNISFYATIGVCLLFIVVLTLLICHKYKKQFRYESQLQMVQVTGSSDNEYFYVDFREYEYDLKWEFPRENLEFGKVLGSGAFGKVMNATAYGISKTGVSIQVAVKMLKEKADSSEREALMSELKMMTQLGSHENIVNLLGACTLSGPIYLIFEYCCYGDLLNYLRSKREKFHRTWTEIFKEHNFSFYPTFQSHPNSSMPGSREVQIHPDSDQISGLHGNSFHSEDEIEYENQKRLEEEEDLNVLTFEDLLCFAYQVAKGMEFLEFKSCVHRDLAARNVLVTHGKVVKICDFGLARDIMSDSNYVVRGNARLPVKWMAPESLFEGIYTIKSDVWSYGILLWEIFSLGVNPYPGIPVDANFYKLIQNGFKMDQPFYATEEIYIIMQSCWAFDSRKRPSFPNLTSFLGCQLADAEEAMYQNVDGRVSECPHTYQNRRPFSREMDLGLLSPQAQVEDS
# UniProt Q12866, 21-999 limits assumed: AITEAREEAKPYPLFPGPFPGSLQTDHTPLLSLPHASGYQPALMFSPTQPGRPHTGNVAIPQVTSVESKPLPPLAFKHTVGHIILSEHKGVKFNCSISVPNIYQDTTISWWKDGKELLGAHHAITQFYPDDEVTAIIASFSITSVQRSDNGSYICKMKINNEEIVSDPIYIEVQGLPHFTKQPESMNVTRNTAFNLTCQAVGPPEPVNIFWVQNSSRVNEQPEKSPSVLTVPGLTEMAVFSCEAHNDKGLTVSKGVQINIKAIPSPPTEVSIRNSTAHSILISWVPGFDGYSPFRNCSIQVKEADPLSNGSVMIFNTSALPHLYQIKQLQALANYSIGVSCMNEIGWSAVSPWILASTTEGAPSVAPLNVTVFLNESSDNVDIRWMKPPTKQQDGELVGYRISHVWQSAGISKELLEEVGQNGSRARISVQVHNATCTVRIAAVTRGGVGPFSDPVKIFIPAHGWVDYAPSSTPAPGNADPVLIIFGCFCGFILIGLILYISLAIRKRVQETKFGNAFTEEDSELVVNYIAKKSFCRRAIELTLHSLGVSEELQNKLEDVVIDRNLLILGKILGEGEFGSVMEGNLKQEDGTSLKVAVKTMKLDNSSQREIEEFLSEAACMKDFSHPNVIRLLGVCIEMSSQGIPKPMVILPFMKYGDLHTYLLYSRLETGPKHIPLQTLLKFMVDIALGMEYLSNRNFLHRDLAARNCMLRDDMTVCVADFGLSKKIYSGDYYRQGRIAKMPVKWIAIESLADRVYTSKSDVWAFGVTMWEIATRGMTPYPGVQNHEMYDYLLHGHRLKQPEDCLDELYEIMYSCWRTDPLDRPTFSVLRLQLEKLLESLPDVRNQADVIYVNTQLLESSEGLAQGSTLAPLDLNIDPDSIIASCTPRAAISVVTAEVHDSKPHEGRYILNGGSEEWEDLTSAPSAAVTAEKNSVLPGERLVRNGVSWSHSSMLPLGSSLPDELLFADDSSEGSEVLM
# UniProt Q06418, 41-890 limits assumed: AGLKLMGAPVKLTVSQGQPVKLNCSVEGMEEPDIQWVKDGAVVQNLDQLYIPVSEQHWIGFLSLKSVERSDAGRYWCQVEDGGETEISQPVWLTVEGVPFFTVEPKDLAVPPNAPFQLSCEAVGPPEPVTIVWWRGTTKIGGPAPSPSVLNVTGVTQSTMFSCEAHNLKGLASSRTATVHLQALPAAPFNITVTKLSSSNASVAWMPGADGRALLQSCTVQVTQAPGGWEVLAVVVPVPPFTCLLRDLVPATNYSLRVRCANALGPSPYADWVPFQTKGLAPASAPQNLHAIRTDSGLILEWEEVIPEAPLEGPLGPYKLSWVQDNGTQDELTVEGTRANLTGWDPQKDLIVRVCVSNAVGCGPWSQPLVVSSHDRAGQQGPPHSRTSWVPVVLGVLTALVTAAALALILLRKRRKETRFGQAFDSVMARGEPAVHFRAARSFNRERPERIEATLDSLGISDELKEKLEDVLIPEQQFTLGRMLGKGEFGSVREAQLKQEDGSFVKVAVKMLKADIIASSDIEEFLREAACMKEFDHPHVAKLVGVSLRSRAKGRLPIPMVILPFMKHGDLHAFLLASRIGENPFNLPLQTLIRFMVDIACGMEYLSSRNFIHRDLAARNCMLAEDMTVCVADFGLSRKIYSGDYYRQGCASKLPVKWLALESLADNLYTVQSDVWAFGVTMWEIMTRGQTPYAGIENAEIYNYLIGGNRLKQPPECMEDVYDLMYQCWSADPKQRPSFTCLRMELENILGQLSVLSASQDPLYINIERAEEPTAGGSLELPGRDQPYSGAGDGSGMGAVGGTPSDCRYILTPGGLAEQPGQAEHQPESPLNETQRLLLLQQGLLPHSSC
# Assay: TR-FRET kinase activity assay, AXL
# Conditions: read-out: Axl IC50, ATP at Km, 60 minutes
# Description: (§1) IC50 values for compound inhibition of AXL, FLT3, MERTK and TYRO3 activity were determined by using a TR-FRET activity assay. A polypeptide substrate with a fluorescent label is phosphorylated on a tyrosine by each enzyme, where the now phosphorylated product is bound by a Europium-labeled antibody specific to that phosphorylation site. The proximity between the antibody and the substrate gives a signal known as TR-FRET. As the enzyme is inhibited by compound, less phosphorylated peptide product is made causing a decrease in overall signal.
# (§2) Activity assays were performed in a 384-well, small volume, black microplates in an active enzyme volume of 10 μL and final developed volume of 20 μL. Final assay conditions are 50 mM HEPES pH 7.5, 10 mM MgCl2, 1 mM EGTA, 0.01% Brij 35 and 1 mM DTT all at RT. Enzyme, substrate labeled peptide and compound are mixed, and then the reaction is initiated with the addition of ATP at Km concentration for each enzyme. The reaction is allowed to run 60 minutes and then quenched with a 12.5 mM EDTA (ethylenediamine tetraacetic acid) solution. The plate is then developed with the addition of Europium labeled antibody for a final volume of 20 μL and is then incubated for 30 minutes in darkness. Plates are read in a Pherastar plate reader. Data is analyzed in GraphPad PRISM.
# (§3) The results of these assays are shown in Table 1, below, wherein “No.” designates compound number (FIG. 1); “A” represents a value of ≤100 nM; “B” a value of >100 nM and ≤1 μM; “C” a value of >1 μM and ≤10 μM; “D” a value of >10 μM; “ND” is not determined. The ratio of Mer to FLT3 is calculated as follows: FLT3 IC50/Mer IC50. “+” represents a ratio of >2.0 and <10; “++” represents a ratio of between 10 and 100; and “+++” represents a ratio of >100.
row,SMILES,IC50 [nM]
1,COCC(C)Nc1ncc2c(-c3cnn(C4COC4)c3)cc(C3CCC(O)C3)n2n1 (centres unmarked),100 to 1000
2,C[C@H](Nc1ncc2c(-c3cnn(C4COC4)c3)cc([C@H]3CC[C@H](O)CC3)n2n1)C1COC1,100 to 1000
3,COC[C@H](C)Nc1ncc2c(-c3cnn(C4COC4)c3)cc([C@H]3CC[C@H](N(C)C)CC3)n2n1,100 to 1000
4,COC[C@H](C)Nc1ncc2c([C@@H]3CCCNC3)cc([C@H]3CC[C@H](O)CC3)n2n1,100 to 1000
5,COC[C@H](C)Nc1ncc2c(-c3cnn(C4COC4)c3)cc([C@@H]3CC[C@@H](O)C3)n2n1,100 to 1000
6,COC[C@H](C)Nc1ncc2c([C@@H]3CCCN(C(=O)OC(C)(C)C)C3)cc([C@H]3CC[C@H](O)CC3)n2n1,1000 to 10000
7,COC[C@H](C)Nc1ncc2c(C3=CC[C@@H](C(=O)N4CCOCC4)CC3)cc([C@H]3CC[C@H](O)CC3)n2n1,< 100

# Target: FLT3 (Homo sapiens, UniProt P36888)
# Assay: TR-FRET kinase activity assay, FLT3
# Conditions: read-out: Flt3 IC50, ATP at Km, 60 minutes
row,SMILES,IC50 [nM]
1,COCC(C)Nc1ncc2c(-c3cnn(C4COC4)c3)cc(C3CCC(O)C3)n2n1 (centres unmarked),100 to 1000
2,C[C@H](Nc1ncc2c(-c3cnn(C4COC4)c3)cc([C@H]3CC[C@H](O)CC3)n2n1)C1COC1,< 100
3,COC[C@H](C)Nc1ncc2c(-c3cnn(C4COC4)c3)cc([C@H]3CC[C@H](N(C)C)CC3)n2n1,100 to 1000
4,COC[C@H](C)Nc1ncc2c([C@@H]3CCCNC3)cc([C@H]3CC[C@H](O)CC3)n2n1,1000 to 10000
5,COC[C@H](C)Nc1ncc2c(-c3cnn(C4COC4)c3)cc([C@@H]3CC[C@@H](O)C3)n2n1,1000 to 10000
6,COC[C@H](C)Nc1ncc2c([C@@H]3CCCN(C(=O)OC(C)(C)C)C3)cc([C@H]3CC[C@H](O)CC3)n2n1,> 10000
7,COC[C@H](C)Nc1ncc2c(C3=CC[C@@H](C(=O)N4CCOCC4)CC3)cc([C@H]3CC[C@H](O)CC3)n2n1,100 to 1000

# Target: MERTK (Homo sapiens, UniProt Q12866)
# Assay: TR-FRET kinase activity assay, MERTK
# Conditions: ratio calculated as FLT3 IC50/Mer IC50
# Description: as §1, §2, §3
row,SMILES,FLT3/Mer ratio (FLT3 IC50/Mer IC50)
1,COCC(C)Nc1ncc2c(-c3cnn(C4COC4)c3)cc(C3CCC(O)C3)n2n1 (centres unmarked),++ (“++” represents a ratio of between 10 and 100)
2,C[C@H](Nc1ncc2c(-c3cnn(C4COC4)c3)cc([C@H]3CC[C@H](O)CC3)n2n1)C1COC1,++ (“++” represents a ratio of between 10 and 100)
3,COC[C@H](C)Nc1ncc2c(-c3cnn(C4COC4)c3)cc([C@H]3CC[C@H](N(C)C)CC3)n2n1,++ (“++” represents a ratio of between 10 and 100)
4,COC[C@H](C)Nc1ncc2c([C@@H]3CCCNC3)cc([C@H]3CC[C@H](O)CC3)n2n1,+++ (“+++” represents a ratio of >100)
5,COC[C@H](C)Nc1ncc2c(-c3cnn(C4COC4)c3)cc([C@@H]3CC[C@@H](O)C3)n2n1,+++ (“+++” represents a ratio of >100)
6,COC[C@H](C)Nc1ncc2c([C@@H]3CCCN(C(=O)OC(C)(C)C)C3)cc([C@H]3CC[C@H](O)CC3)n2n1,+++ (“+++” represents a ratio of >100)
7,COC[C@H](C)Nc1ncc2c(C3=CC[C@@H](C(=O)N4CCOCC4)CC3)cc([C@H]3CC[C@H](O)CC3)n2n1,+++ (“+++” represents a ratio of >100)

# Same assay, conditions: read-out: Mer IC50; TR-FRET activity assay, ATP at Km, 60 minutes
row,SMILES,IC50 [nM]
1,COCC(C)Nc1ncc2c(-c3cnn(C4COC4)c3)cc(C3CCC(O)C3)n2n1 (centres unmarked),< 100
2,C[C@H](Nc1ncc2c(-c3cnn(C4COC4)c3)cc([C@H]3CC[C@H](O)CC3)n2n1)C1COC1,< 100
3,COC[C@H](C)Nc1ncc2c(-c3cnn(C4COC4)c3)cc([C@H]3CC[C@H](N(C)C)CC3)n2n1,< 100
4,COC[C@H](C)Nc1ncc2c([C@@H]3CCCNC3)cc([C@H]3CC[C@H](O)CC3)n2n1,< 100
5,COC[C@H](C)Nc1ncc2c(-c3cnn(C4COC4)c3)cc([C@@H]3CC[C@@H](O)C3)n2n1,< 100
6,COC[C@H](C)Nc1ncc2c([C@@H]3CCCN(C(=O)OC(C)(C)C)C3)cc([C@H]3CC[C@H](O)CC3)n2n1,< 100
7,COC[C@H](C)Nc1ncc2c(C3=CC[C@@H](C(=O)N4CCOCC4)CC3)cc([C@H]3CC[C@H](O)CC3)n2n1,< 100

# Target: TYRO3 (Homo sapiens, UniProt Q06418)
# Assay: TR-FRET kinase activity assay, TYRO3
# Conditions: read-out: Tyro3 IC50, ATP at Km, 60 minutes
# Description: as §1, §2, §3
row,SMILES,IC50 [nM]
1,COCC(C)Nc1ncc2c(-c3cnn(C4COC4)c3)cc(C3CCC(O)C3)n2n1 (centres unmarked),< 100
2,C[C@H](Nc1ncc2c(-c3cnn(C4COC4)c3)cc([C@H]3CC[C@H](O)CC3)n2n1)C1COC1,< 100
3,COC[C@H](C)Nc1ncc2c(-c3cnn(C4COC4)c3)cc([C@H]3CC[C@H](N(C)C)CC3)n2n1,< 100
4,COC[C@H](C)Nc1ncc2c([C@@H]3CCCNC3)cc([C@H]3CC[C@H](O)CC3)n2n1,< 100
5,COC[C@H](C)Nc1ncc2c(-c3cnn(C4COC4)c3)cc([C@@H]3CC[C@@H](O)C3)n2n1,< 100
6,COC[C@H](C)Nc1ncc2c([C@@H]3CCCN(C(=O)OC(C)(C)C)C3)cc([C@H]3CC[C@H](O)CC3)n2n1,1000 to 10000
7,COC[C@H](C)Nc1ncc2c(C3=CC[C@@H](C(=O)N4CCOCC4)CC3)cc([C@H]3CC[C@H](O)CC3)n2n1,< 100

# Source: patent US11040981B2, “Pyrrolotriazine compounds and methods of inhibiting TAM kinases” (Syros Pharmaceuticals, Inc., priority 2017, dated 2021)
